The values that follow come from patent US20250382308A1, “COMPOUNDS ACTIVE TOWARDS BROMODOMAINS” (NUEVOLUTION A/S, priority 2022, published 2025).

Test [1] addresses first bromodomain of BRD4 (Homo sapiens (Human), UniProt O60885). In words: Bromoscan binding assay BRD4 (1). The following applies: geometric mean where multiple measurements have been made. On the procedure: (§1) Compounds were assayed for binding affinity using bromoscan assays and a phosphodiesterase three assay.
Bromoscan assays were run by DiscoveRx Corporation. The relevant assay names are BRD4 (1) for the first bromodomain of BRD4 and BRD4 (2) for the second bromodomain of BRD4. Further Bromoscan assays covering other bromodomains may be employed to establish the selectivity profile of a compound of interest. To run the Bromoscan assay, a T7 phage strain displaying the relevant bromodomain was grown in parallel in 24-well blocks in an E. coli host derived from the BL21 strain. E. coli were grown to log-phase and infected with T7 phage from a frozen stock (multiplicity of infection=0.4) and incubated with shaking at 32° C. until lysis (90-150 minutes). The lysates were centrifuged (5,000×g) and filtered (0.2 μm) to remove cell debris. […] The liganded beads were blocked with excess biotin and washed with blocking buffer (SeaBlock (Pierce), 1% BSA (bovine serum albumin), 0.05% Tween 20, 1 mM DTT (dithiothreitol)) to remove unbound ligand and to reduce non-specific phage binding. […] The bromodomain concentration in the eluates was measured by qPCR (quantitative real-time polymerase chain reaction). Binding constants (Kds) were calculated with a standard dose-response curve using the Hill equation: Response=Blackground+((Signal-Background)/(1+Kd^Hill Slope/Dose^Hill Slope)). […]

The target in test [2] is second bromodomain of BRD4 (Homo sapiens (Human), UniProt O60885). Description: Bromoscan binding assay BRD4 (2). The following applies: geometric mean where multiple measurements have been made. How it is done:
as §1
Bromoscan assays were run by DiscoveRx Corporation. The relevant assay names are BRD4 (1) for the first bromodomain of BRD4 and BRD4 (2) for the second bromodomain of BRD4. Further Bromoscan assays covering other bromodomains may be employed to establish the selectivity profile of a compound of interest. To run the Bromoscan assay, a T7 phage strain displaying the relevant bromodomain was grown in parallel in 24-well blocks in an E. coli host derived from the BL21 strain. E. coli were grown to log-phase and infected with T7 phage from a frozen stock (multiplicity of infection=0.4) and incubated with shaking at 32° C. until lysis (90-150 minutes). The lysates were centrifuged (5,000×g) and filtered (0.2 μm) to remove cell debris. Streptavidin-coated magnetic beads were treated with biotinylated small molecule or acetylated peptide ligands for 30 minutes at room temperature to generate affinity resins for bromodomain assays. […] The bromodomain concentration in the eluates was measured by qPCR (quantitative real-time polymerase chain reaction). Binding constants (Kds) were calculated with a standard dose-response curve using the Hill equation: Response=Blackground+((Signal-Background)/(1+Kd^Hill Slope/Dose^Hill Slope)). […]

By Kd is commonly meant the free concentration of one partner at which half of the binding sites on the other are occupied at equilibrium, for simple one-to-one binding. Lower therefore signals tighter binding.

As to `COc1cc(NC(=O)c2cc3c(nc2N2C[C@@H]4C[C@H]2CO4)COC3)cc2c(C)cc(=O)[nH]c12` [Example 23, N-(8-methoxy-4-methyl-2-oxo-1H-quinolin-6-yl)-2-[(1S,4S)-2-oxa-5-azabicyclo[2.2.1]heptan-5-yl]-5,7-dihydrofuro[3,4-b]pyridine-3-carboxamide], the values for the Kd in test [1] and in test [2] were 190 nM and 3200 nM, respectively.
Take `COc1cc(NC(=O)c2cc3c(nc2N2C[C@H]4C[C@@H]2CO4)COC3)cc2c(C)cc(=O)[nH]c12` [Example 24, N-(8-methoxy-4-methyl-2-oxo-1H-quinolin-6-yl)-2-[(1R,4R)-2-oxa-5-azabicyclo[2.2.1]heptan-5-yl]-5,7-dihydrofuro[3,4-b]pyridine-3-carboxamide]: the results for the Kd in test [1] and in test [2] were 28 nM and 700 nM, respectively.
